Test [1] relates to MG-63 osteosarcoma cell line. In words: Cell proliferation assay (ATPlite), MG-63. The settings on record: 5 day proliferation assay.
The test system of test [2] is post-tetraploid HPT2 cells. In words: Cell proliferation assay, post-tetraploid HPT2. The settings on record: HPT2, five days.
Test [3] relates to A-172 glioblastoma cell line. In words: Cell proliferation assay (ATPlite), A-172. Particulars: 5 day proliferation assay.
The test system of test [4] is post-tetraploid HPT4 cells. In words: Cell proliferation assay, post-tetraploid HPT4. The settings on record: HPT4, five days.
Test [5] relates to post-tetraploid HPT1 cells. Kind of test: Cell proliferation assay, post-tetraploid HPT1. Particulars: HPT1, five days.
Test [6] deals with DoTc2 4510 cervix carcinoma cell line. In words: Cell proliferation assay (ATPlite), DoTc2 4510. Particulars: 5 day proliferation assay. For orientation: In ATP-based viability assays light output follows the ATP content of the culture.
Test [7] has as its system OVCAR-3 ovary adenocarcinoma cell line. In words: Cell proliferation assay (ATPlite), OVCAR-3. The settings on record: 5 day proliferation assay.
The test system of test [8] is HCT 116 colon carcinoma cell line. Kind of test: Cell proliferation assay (ATPlite), HCT 116.
Test [9] relates to 66 cancer cell lines (44 cell lines). Particulars: read-out: average IC50; 5 days; geometric average in 66 cancer cell lines; cited from earlier work.
Test [10] deals with LoVo colorectal adenocarcinoma cell line. Kind of test: Cell proliferation assay (ATPlite), LoVo. Particulars: 5 day proliferation assay.
Setting [11] is: geometric average of three experiments.

Each structure is given as a SMILES string.

The source of these data is paper PMC5503534, “Stable aneuploid tumors cells are more sensitive to TTK inhibition than chromosomally unstable cell lines” (Oncotarget, 2017).

As to `CC(C)CNc1nccn2c(-c3ccc(C(=O)NC4CC4)cc3)cnc12`, the IC50 (as a rule, the concentration at which inhibition is half-maximal) in [1] amounted to 3.76 µM; in [2] (setting [11]), 1800 nM; in [3] it was 1630 nM; in [4] (setting [11]), 1580 nM; in test [5] (setting [11]), 1890 nM; in test [6], 2560 nM. In addition, the IC50 in [7] was 5.49 µM; in test [8] (5 day proliferation assay, HCT 116 (Suppl. Table 1)) it was 1390 nM; in [8] (HCT 116 near-diploid, five days, geometric average of three experiments (Suppl. Table 2A)), 1580 nM; in test [9] it was 1820 nM; in test [10] it was 1430 nM. In addition, the “Efficacy (%)” value stood at 49% in test [2] (average of three experiments), 52% in test [4] (average of three experiments) and 66% in [5] (average of three experiments). In test [8] (HCT 116, five days, maximum inhibitory effect, average of three experiments), the “Eff. (%)” value is on record as 87%.
